Measured values as given in patent US10842797B2, “Nutraceutical co-crystal compositions” (UNIVERSITY OF SOUTH FLORIDA, priority 2007, dated 2020).

Method: Solubility profiles for co-crystals were determined by UV-vis spectroscopy (Perkin Elmer-Lambda 25 UV-vis spectrometer, 400 nm).
The solubility of KP10 in 1:1 ethanol/water (V/V %) was determined by UV-vis spectroscopy, with a wavelength of 360 nm.
The solubility of KP15 in 1:1 ethanol/water (V/V %) was determined by UV-vis spectroscopy, with a wavelength of 300 nm.

Question: Which “increase in the solubility of hesperetin in the co-crystal when compared to pure hesperetin” value does the source give for “Co-Crystal of Hesperetin and Nicotinic Acid [KP22]” here?
Answer: Its value is “approximately 5 fold”.
